Results: patent US8716493B2, “Multicyclic compounds and the use thereof” (Cephalon, Inc., priority 2000, dated 2014)

Protein sequences, listed by entry. Tags and fused reporters are not part of them.
UniProt P09874, whole entry: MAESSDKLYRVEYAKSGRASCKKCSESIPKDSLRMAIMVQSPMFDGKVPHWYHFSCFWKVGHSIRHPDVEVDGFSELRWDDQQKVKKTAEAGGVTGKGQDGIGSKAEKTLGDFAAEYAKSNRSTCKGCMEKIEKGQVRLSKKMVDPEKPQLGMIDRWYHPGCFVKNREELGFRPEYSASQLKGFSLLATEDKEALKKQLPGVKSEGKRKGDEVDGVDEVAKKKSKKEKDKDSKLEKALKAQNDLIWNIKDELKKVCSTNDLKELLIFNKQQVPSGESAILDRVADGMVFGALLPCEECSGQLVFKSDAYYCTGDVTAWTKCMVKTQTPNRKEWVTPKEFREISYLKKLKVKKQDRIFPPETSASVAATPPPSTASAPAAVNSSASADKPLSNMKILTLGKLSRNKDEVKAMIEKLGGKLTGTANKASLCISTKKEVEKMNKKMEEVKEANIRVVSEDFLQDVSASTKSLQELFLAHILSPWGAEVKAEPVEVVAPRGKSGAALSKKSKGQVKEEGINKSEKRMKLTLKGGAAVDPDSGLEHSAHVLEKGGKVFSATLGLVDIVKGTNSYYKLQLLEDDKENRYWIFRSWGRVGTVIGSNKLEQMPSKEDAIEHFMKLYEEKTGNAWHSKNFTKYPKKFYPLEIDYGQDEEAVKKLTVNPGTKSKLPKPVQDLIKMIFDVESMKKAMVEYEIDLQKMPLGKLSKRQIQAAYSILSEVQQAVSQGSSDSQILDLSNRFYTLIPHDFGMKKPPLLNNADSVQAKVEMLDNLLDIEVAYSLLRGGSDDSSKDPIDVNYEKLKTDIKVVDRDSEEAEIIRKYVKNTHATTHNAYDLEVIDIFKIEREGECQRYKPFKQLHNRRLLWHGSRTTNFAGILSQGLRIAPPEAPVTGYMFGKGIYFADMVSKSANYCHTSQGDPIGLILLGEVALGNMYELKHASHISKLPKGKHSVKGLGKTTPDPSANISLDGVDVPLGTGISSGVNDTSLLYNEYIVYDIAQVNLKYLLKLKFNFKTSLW

Molecular target: recombinant human PARP (Homo sapiens, UniProt P09874)
Test: Measurement of PARP enzymatic activity (transfer of radiolabeled ADP-ribose from NAD+ to protein acceptor)
Type: biochemical
Conditions: read-out: PARP IC50

Row | SMILES | IC50 (Table 2) [nM] | further results
1 | NCCCC[C@H](N)C(=O)N1C(=O)c2c3c(c4[nH]c5ccc(F)cc5c4c2C1=O)CCC3 |  | IC50 (Table 3, tested form: 2 HCl): 48 nM
2 | O=C1NC(=O)c2c1c1c(c3[nH]c(Br)c(Br)c23)CCC1 |  | IC50 (Table 4): 20 nM
3 | O=C1CCN(C(=O)c2ccc3[nH]c4c5c(c6c(c4c3c2)C(=O)NC6=O)CCC5)CC1 | 14 | 
4 | O=C1c2c3c(c4[nH]c5ccccc5c4c2C(=O)N1CO)CCC3 |  | IC50 (Table 3): 138 nM
5 | O=C(NCCc1c[nH]cn1)c1ccc2[nH]c3c4c(c5c(c3c2c1)C(=O)NC5=O)CCC4 | 15 | 
6 | O=C1c2c3c(c4[nH]c5ccccc5c4c2C(=O)N1CCCOCc1ccccc1)CCC3 |  | IC50 (Table 1): 720 nM

The next lines start with results.

Row | IC50 (Table 2) [nM] | SMILES | further results
7 | 73 | C[N+](C)(C)Cc1ccc2[nH]c3c4c(c5c(c3c2c1)C(=O)NC5=O)CCC4 | 
8 | 62 | COC(=O)CCCCC(=O)NCc1ccc2[nH]c3c4c(c5c(c3c2c1)C(=O)NC5=O)CCC4 | 
9 | 75 | NCCC(=O)NCc1ccc2[nH]c3c4c(c5c(c3c2c1)C(=O)NC5=O)CCC4 | 
10 | 29 | O=Cc1ccc2[nH]c3c4c(c5c(c3c2c1)C(=O)NC5=O)CCC4 | 

Like-named read-outs stand apart in the source and are kept apart here.
